Source: PubChem BioAssay AID652039 (The Scripps Research Institute Molecular Screening Center, 2013)
The entries are a selection whose mix differs from that of the whole data set. Calls of active or inactive are those of the source.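 How the source made its calls: active means activation above the mean of all tested compounds plus 3 SD, computed per campaign excluding outliers beyond control limits (cut at about 13% in these data); inactive means the rest.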

By UniProt entry, the sequences of proteins in these tests, tags left out.
UniProt P49862, whole entry: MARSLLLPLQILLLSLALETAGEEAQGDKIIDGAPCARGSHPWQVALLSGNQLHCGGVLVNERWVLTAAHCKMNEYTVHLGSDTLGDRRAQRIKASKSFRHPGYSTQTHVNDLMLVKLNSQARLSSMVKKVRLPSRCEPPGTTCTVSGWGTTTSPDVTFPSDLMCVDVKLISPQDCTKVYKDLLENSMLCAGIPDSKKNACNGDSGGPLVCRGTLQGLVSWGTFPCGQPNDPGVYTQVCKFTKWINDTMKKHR

These compounds were tested against Kallikrein-7 (Homo sapiens) (UniProt P49862) (assay: proKLK7 zymogen activators, primary screen, biochemical, fluorescence intensity (AID 652039)). Details: purified proKLK7, EDANS-DABCYL substrate fluorescence; at 7 µM; active compounds read high; 100% is mature enzyme control, 0% vehicle.
`Cn1c(=O)[nH]cc(N(CCCl)CCCl)c1=O` was tested, and the activation was inactive: 0.06%. In the case of `CN(C)c1ccc(C(=O)NCC2(N3CCCCC3)CCCCC2)cc1`, the activation is reported as inactive: -0.03%. With `O=C(NCC1(N2CCCCC2)CCCCC1)c1ccco1` the activation was inactive: 0.2%. With `CC(C)(C)n1nnnc1C(c1ccnc2ccccc12)N1CCC(n2c(=O)[nH]c3ccccc32)CC1` (stereo not given) the activation was inactive: 0.38%. `CCN1CCC(Nc2cccc(F)c2)CC1` was tested, and the activation was inactive: 0.21%. With `COc1ccc(C(c2nnnn2C2CCCCC2)N2CCC(n3c(=O)[nH]c4ccccc43)CC2)cc1` (stereo not given) the activation was inactive: 0.83%. For `Cc1ccccc1NC1(C#N)CCN(Cc2ccccc2)CC1`, the activation was inactive: 0.14%. With `Fc1ccccc1NC1CCN(Cc2ccccc2)CC1` the activation was inactive: -0.83%. In the case of `Cc1ccc(C(=O)NCC2(N3CCCCC3)CCCCC2)o1`, the activation is reported as inactive: -0.42%. In the case of `Cc1ccc(NC2(C#N)CCN(Cc3ccccc3)CC2)cc1`, the activation is reported as inactive: 0.18%. With `CCC(c1nnnn1C1CCCCC1)N1CCC(n2c(=O)[nH]c3ccccc32)CC1` (stereo not given) the activation was inactive: 0.98%. `CC(=O)N(c1ccccc1)C1CCNCC1` was tested, and the activation was inactive: 0.08%. In the case of `COc1cccc(C(c2nnnn2C2CCCCC2)N2CCC(n3c(=O)[nH]c4ccccc43)CC2)c1OC` (stereo not given), the activation is reported as inactive: 0.24%. `O=c1[nH]c2ccccc2n1C1CCN(C(c2ccnc3ccccc23)c2nnnn2C2CCCCC2)CC1` (stereo not given) was tested, and the activation was inactive: 0.1%. For `COc1cc(OC)cc(C(=O)NCC2(N3CCCCC3)CCCCC2)c1`, the activation was inactive: -0.61%. `CN1CCC(Nc2ccc(Cl)cc2)CC1` was tested, and the activation was inactive: -0.12%. With `COc1cccc(C(=O)N(c2cc(C)cc(C)c2)C2CCN(C(=O)OC(C)(C)C)CC2)c1` the activation was inactive: -0.15%. For `COc1cccc(C(c2nnnn2C2CCCC2)N2CCC(n3c(=O)[nH]c4ccccc43)CC2)c1OC` (stereo not given), the activation was inactive: 0.79%. `COc1cc(OC)cc(C(=O)NCC2(N3CCOCC3)CCCCC2)c1` was tested, and the activation was inactive: -0.08%. For `CCC(CO)(C(=O)OC1CN2CCC1CC2)c1ccccc1` (stereo not given), the activation was inactive: -0.03%. For `NN(c1ccccc1)C1CCN(CCc2ccccc2)CC1`, the activation was inactive: 0.15%. In the case of `O=C(O)C1(Nc2ccccc2)CCN(Cc2ccccc2)CC1`, the activation is reported as inactive: -0.36%. For `CC(C)(C)OC(=O)N1CCC(Nc2ccccc2)CC1`, the activation was inactive: -0.02%. For `CCCOc1ccc(C(=O)NCC2(N(C)C)CCCCC2)cc1`, the activation was inactive: 0.57%. For `O=c1[nH]c2ccccc2n1C1CCN(C(c2cc3ccccc3o2)c2nnnn2C2CCCC2)CC1` (stereo not given), the activation was inactive: 0.69%. `CN1CCC(Nc2ccc(F)c(Cl)c2)CC1` was tested, and the activation was inactive: -0.28%. In the case of `CCOc1ncccc1C(=O)NCC1(N2CCOCC2)CCCCC1`, the activation is reported as inactive: 0.66%. With `O=c1[nH]c2ccccc2n1C1CCN(C(c2cccs2)c2nnnn2C2CCCC2)CC1` (stereo not given) the activation was inactive: -0.16%. For `O=C(OC1CN2CCC1CC2)C1c2ccccc2C=Cc2ccccc21` (stereo not given), the activation was inactive: -0.22%. With `CCCCn1nnnc1C(c1cccc(OC)c1OC)N1CCC(n2c(=O)[nH]c3ccccc32)CC1` (stereo not given) the activation was inactive: 0.81%. With `COc1cccc(C(c2nnnn2C(C)(C)C)N2CCC(n3c(=O)[nH]c4ccccc43)CC2)c1OC` (stereo not given) the activation was inactive: -0.38%. For `CCOC(=O)N1CCC(Nc2ccc(C)cc2)CC1`, the activation was inactive: -0.25%. For `N/C(=N\O)c1c(N)no[n+]1[O-]`, the activation was inactive: 0.03%. In the case of `NC(=O)C1(Nc2ccccc2)CCN(Cc2ccccc2)CC1`, the activation is reported as inactive: 0.08%. In the case of `O=c1[nH]c2ccccc2n1C1CCN(C(c2cccs2)c2nnnn2C2CCCCC2)CC1` (stereo not given), the activation is reported as inactive: 0.2%. In the case of `O=c1[nH]c2ccccc2n1C1CCN(C(c2ccnc3ccccc23)c2nnnn2C2CCCC2)CC1` (stereo not given), the activation is reported as inactive: 0.2%. With `COc1ccc(C(=O)NCC2(N3CCOCC3)CCCCC2)cc1OC` the activation was inactive: 0.63%. For `COc1cc(C(=O)NCC2(N3CCOCC3)CCCCC2)cc(OC)c1C`, the activation was inactive: -0.62%. In the case of `CCCCn1nnnc1C(c1ccccc1)N1CCC(n2c(=O)[nH]c3ccccc32)CC1` (stereo not given), the activation is reported as inactive: 0.03%. With `O=C(NCC1(N2CCOCC2)CCCCC1)c1cc(Br)ccc1Cl` the activation was inactive: 0.3%. For `CC(C)(C)n1nnnc1C(c1cccc2ccccc12)N1CCC(n2c(=O)[nH]c3ccccc32)CC1` (stereo not given), the activation was inactive: -0.08%. In the case of `CN(C)C1(CNC(=O)c2cccc(C#N)c2)CCCCC1`, the activation is reported as inactive: -0.11%. In the case of `Cc1cc(N(CCCl)CCCl)ccc1C=O`, the activation is reported as inactive: -0.17%. `O=c1[nH]c2ccccc2n1C1CCN(C(c2ccccc2)c2nnnn2C2CCCC2)CC1` (stereo not given) was tested, and the activation was inactive: 0.94%. In the case of `CCCN1CCC(Nc2cc(OC)cc(OC)c2)CC1`, the activation is reported as inactive: 0.31%. With `c1ccc(CN2CCC(Nc3ccccc3)CC2)cc1` the activation was inactive: 0.27%. With `C/C(N)=N\P(=O)(Oc1ccccc1)Oc1ccccc1` the activation was inactive: -0.05%. `N#Cc1ccc(C(=O)NCC2(N3CCCCC3)CCCCC2)cc1` was tested, and the activation was inactive: -0.33%. In the case of `CC(C)(C)OC(=O)N1CCC(N(C(=O)c2ccccc2)c2ccc(Cl)cc2)CC1`, the activation is reported as inactive: 1.01%. `O=C(NCC1(N2CCOCC2)CCCCC1)c1cc(=O)[nH]c2ccccc12` was tested, and the activation was inactive: 0.75%. `COc1cc(C(=O)NCC2(N3CCCCC3)CCCCC2)ccc1OC(F)F` was tested, and the activation was inactive: -0.3%. With `CCCCn1nnnc1C(c1cccc2ccccc12)N1CCC(n2c(=O)[nH]c3ccccc32)CC1` (stereo not given) the activation was inactive: 0.03%. With `CC(C)c1ccc(C(=O)NCC2(N3CCOCC3)CCCCC2)cc1` the activation was inactive: -0.18%. For `COc1ccc(NC2CCN(C(=O)OC(C)(C)C)CC2)cc1`, the activation was inactive: -0.13%. With `CN1CCN(CCOC(=O)C(O)(c2ccccc2)c2ccccc2)CC1` the activation was inactive: -0.81%. For `O=C(NCC1(N2CCCCC2)CCCCC1)c1cccc(C(F)(F)F)c1`, the activation was inactive: 0.07%. For `N#CC1(Nc2ccccc2)CCN(CCc2ccccc2)CC1`, the activation was inactive: 0.2%. In the case of `O=c1[nH]c2ccccc2n1C1CCN(C(c2ccccc2OC(F)(F)F)c2nnnn2C2CCCC2)CC1` (stereo not given), the activation is reported as inactive: 0.43%. `CCN1CCC(Nc2ccc(Cl)cc2)CC1` was tested, and the activation was inactive: -0.38%. For `CSc1ccc(C(=O)NCC2(N3CCOCC3)CCCCC2)cc1`, the activation was inactive: 0.1%. With `O=C(NCC1(N2CCCCC2)CCCCC1)c1cccc([N+](=O)[O-])c1` the activation was inactive: -0.14%. For `O=C(NCC1(N2CCCCC2)CCCCC1)c1ccc(OC(F)F)cc1`, the activation was inactive: -0.07%. `CC(C)(C)n1nnnc1C(c1ccccc1OC(F)(F)F)N1CCC(n2c(=O)[nH]c3ccccc32)CC1` (stereo not given) was tested, and the activation was inactive: -0.01%. `COc1ccc(C(c2nnnn2C2CCCC2)N2CCC(n3c(=O)[nH]c4ccccc43)CC2)cc1` (stereo not given) was tested, and the activation was inactive: 0.37%. In the case of `CCCOc1ccc(C(=O)NCC2(N(C)C)CCCCC2)cc1OC`, the activation is reported as inactive: -0.56%. With `Cc1ccc(C(=O)NCC2(N(C)C)CCCCC2)o1` the activation was inactive: 0.15%. With `O=C(NCC1(N2CCCCC2)CCCCC1)c1cncc(Br)c1` the activation was inactive: 0.73%. For `CN1CCC(Nc2cccc(F)c2)CC1`, the activation was inactive: 0.5%. With `CCC(c1nnnn1C(C)(C)C)N1CCC(n2c(=O)[nH]c3ccccc32)CC1` (stereo not given) the activation was inactive: -0.04%. With `O=C(NCC1(N2CCOCC2)CCCCC1)c1cc(F)c(F)cc1Cl` the activation was inactive: -0.32%. In the case of `COc1cc(OC)c(C(=O)NCC2(N(C)C)CCCCC2)cc1OC`, the activation is reported as inactive: -0.44%. `CCCCn1nnnc1C(c1ccnc2ccccc12)N1CCC(n2c(=O)[nH]c3ccccc32)CC1` (stereo not given) was tested, and the activation was inactive: -0.01%. With `CC(C)c1ccc(NC2CCN(C(=O)OC(C)(C)C)CC2)cc1` the activation was inactive: 0.22%. `CN(C)c1cccc(C(=O)NCC2(N3CCCCC3)CCCCC2)c1` was tested, and the activation was inactive: 2.43%. For `COC(=O)C1(Nc2ccccc2)CCN(Cc2ccccc2)CC1`, the activation was inactive: 0.68%. `COc1ccc(CN(CCCl)CCCl)cc1Cl` was tested, and the activation was inactive: 0.3%. For `COc1ccc(Cl)cc1C(=O)NCC1(N2CCOCC2)CCCCC1`, the activation was inactive: 0.24%. `O=c1[nH]c2ccccc2n1C1CCN(C(c2cc3ccccc3o2)c2nnnn2C2CCCCC2)CC1` (stereo not given) was tested, and the activation was inactive: -0.78%. For `O=C(OC1CN2CCC1CC2)C1c2ccccc2Oc2ccccc21` (stereo not given), the activation was inactive: 0.37%. For `N#CC1(Nc2ccccc2)CCN(Cc2ccccc2)CC1`, the activation was inactive: 0.42%. `O=C(NCC1(N2CCCCC2)CCCCC1)c1ccc(Cl)s1` was tested, and the activation was inactive: 0.65%. For `CCCCn1nnnc1C(c1ccc(OC)cc1)N1CCC(n2c(=O)[nH]c3ccccc32)CC1` (stereo not given), the activation was inactive: 1.47%. In the case of `CCOC(=O)N1CCC(Nc2ccc(OC)cc2)CC1`, the activation is reported as inactive: -0.32%. With `Cc1cc(C)cc(N(C(=O)c2ccccc2)C2CCN(C(=O)OC(C)(C)C)CC2)c1` the activation was inactive: 0.38%. In the case of `O=c1[nH]c2ccccc2n1C1CCN(C(c2ccccc2OC(F)(F)F)c2nnnn2C2CCCCC2)CC1` (stereo not given), the activation is reported as inactive: 0.04%. In the case of `O=C(NCC1(N2CCCCC2)CCCCC1)c1ccc(Cl)nc1`, the activation is reported as inactive: 0.51%. For `O=C(NCC1(N2CCOCC2)CCCCC1)c1cc2ccccc2o1`, the activation was inactive: 0.09%. For `Cc1cccc(NC2(C#N)CCN(Cc3ccccc3)CC2)c1`, the activation was inactive: 0.08%. With `CSc1ccccc1C(=O)NCC1(N2CCCCC2)CCCCC1` the activation was inactive: -0.57%. In the case of `CCC(c1nnnn1C1CCCC1)N1CCC(n2c(=O)[nH]c3ccccc32)CC1` (stereo not given), the activation is reported as inactive: -0.41%. In the case of `CC(C)(C)OC(=O)N1CCC(N(C(=O)c2ccccc2)c2ccc(F)cc2)CC1`, the activation is reported as inactive: -0.31%. `COc1ccc(C(=O)NCC2(N3CCCCC3)CCCCC2)c(OC)c1OC` was tested, and the activation was inactive: -0.01%. In the case of `COc1ccc(C(=O)NCC2(N3CCCCC3)CCCCC2)cc1`, the activation is reported as inactive: -0.5%. For `CCCCn1nnnc1C(c1cccs1)N1CCC(n2c(=O)[nH]c3ccccc32)CC1` (stereo not given), the activation was inactive: -0.13%. In the case of `O=C(NCC1(N2CCCCC2)CCCCC1)c1cccs1`, the activation is reported as inactive: 0.26%. In the case of `CCCCn1nnnc1C(CC)N1CCC(n2c(=O)[nH]c3ccccc32)CC1` (stereo not given), the activation is reported as inactive: 0.91%. With `O=C(NCC1(N2CCCCC2)CCCCC1)c1ccc(=O)[nH]c1` the activation was inactive: -0.14%. With `COc1cc(C(=O)NCC2(N(C)C)CCCCC2)ccc1OC(F)F` the activation was inactive: 0.29%. `CCOC(=O)N1CCC(Nc2cccc(C)c2)CC1` was tested, and the activation was inactive: -0.42%. `O=c1[nH]c2ccccc2n1C1CCN(C(c2cccc3ccccc23)c2nnnn2C2CCCC2)CC1` (stereo not given) was tested, and the activation was inactive: -0.3%. For `O=c1[nH]c2ccccc2n1C1CCN(C(c2ccccc2)c2nnnn2C2CCCCC2)CC1` (stereo not given), the activation was inactive: -0.08%. In the case of `CCOC(=O)N1CCC(Nc2ccc(F)cc2)CC1`, the activation is reported as inactive: -0.31%. For `COc1ccc(NC2CCN(CCc3ccccc3)CC2)c(OC)c1`, the activation was inactive: -0.89%. With `O=C(NCC1(N2CCCCC2)CCCCC1)c1ccc(F)cc1` the activation was inactive: -0.14%. With `CCCCOc1ccc(C(=O)NCC2(N3CCOCC3)CCCCC2)cc1` the activation was inactive: -0.56%. In the case of `O=P1(N(CCCl)CCCl)SCCCS1`, the activation is reported as inactive: 0.33%. For `CCCCn1nnnc1C(c1cc2ccccc2o1)N1CCC(n2c(=O)[nH]c3ccccc32)CC1` (stereo not given), the activation was inactive: 0.14%. `O=C1CCN(Cc2ccccc2)CC1` was tested, and the activation was inactive: 0.64%. In the case of `CC(C)(C)n1nnnc1C(c1ccccc1)N1CCC(n2c(=O)[nH]c3ccccc32)CC1` (stereo not given), the activation is reported as inactive: 0.27%. `CCOc1ccc(C)cc1CN(CCCl)CCCl` was tested, and the activation was inactive: -0.2%.
